Data from patent US9085540B2, “Pyrazinecarboxamide compound” (Astellas Pharma Inc., priority 2012, dated 2015).

Sequences of proteins named here, by UniProt entry; tags and fusion partners are left off. Residues count along the entry.
UniProt P00533, 25-1210 T790M/L858R: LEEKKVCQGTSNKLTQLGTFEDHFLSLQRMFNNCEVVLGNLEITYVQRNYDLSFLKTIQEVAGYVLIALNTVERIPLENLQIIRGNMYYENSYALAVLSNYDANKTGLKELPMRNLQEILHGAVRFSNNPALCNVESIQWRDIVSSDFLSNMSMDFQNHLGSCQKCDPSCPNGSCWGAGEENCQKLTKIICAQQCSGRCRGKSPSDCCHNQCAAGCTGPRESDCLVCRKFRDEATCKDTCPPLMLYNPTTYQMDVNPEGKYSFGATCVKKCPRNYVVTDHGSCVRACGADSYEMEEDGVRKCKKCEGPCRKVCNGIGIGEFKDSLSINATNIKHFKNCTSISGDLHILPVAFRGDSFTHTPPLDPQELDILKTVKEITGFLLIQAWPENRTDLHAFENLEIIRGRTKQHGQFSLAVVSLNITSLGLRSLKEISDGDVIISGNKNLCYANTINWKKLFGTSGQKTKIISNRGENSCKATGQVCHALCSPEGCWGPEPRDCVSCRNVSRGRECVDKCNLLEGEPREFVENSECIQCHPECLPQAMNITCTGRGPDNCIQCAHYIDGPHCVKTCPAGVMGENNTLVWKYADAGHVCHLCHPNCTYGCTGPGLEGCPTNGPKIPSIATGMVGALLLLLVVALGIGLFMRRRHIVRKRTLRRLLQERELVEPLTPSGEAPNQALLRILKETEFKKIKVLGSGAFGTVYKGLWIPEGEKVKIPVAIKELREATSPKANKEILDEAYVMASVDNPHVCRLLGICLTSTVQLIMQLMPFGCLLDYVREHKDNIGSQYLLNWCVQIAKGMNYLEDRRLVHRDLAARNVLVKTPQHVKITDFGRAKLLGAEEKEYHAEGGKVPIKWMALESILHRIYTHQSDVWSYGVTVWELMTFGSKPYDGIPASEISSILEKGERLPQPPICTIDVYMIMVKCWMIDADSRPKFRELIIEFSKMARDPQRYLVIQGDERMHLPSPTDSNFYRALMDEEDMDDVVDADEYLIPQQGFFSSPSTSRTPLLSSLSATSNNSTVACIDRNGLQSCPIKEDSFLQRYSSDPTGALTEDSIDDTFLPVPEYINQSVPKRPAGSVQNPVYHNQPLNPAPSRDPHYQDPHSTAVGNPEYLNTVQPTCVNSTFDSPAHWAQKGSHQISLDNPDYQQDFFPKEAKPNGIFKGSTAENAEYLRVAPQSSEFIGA

Assays:
EGFR [T790M/L858R] = EGFR [T790M/L858R] (Homo sapiens (Human), UniProt P00533, L858R/T790M); experiment: Inhibitory activity on EGFR T790M/L858R mutation kinase (LabChip peptide substrate phosphorylation); format: biochemical; details: EGFR [T790M/L858R] enzyme, 2 hours preincubation, ATP 1000 μM
Experimental: The phosphorylation activity on the peptide substrate of EGFR was investigated using LabChip (trademark) Systems (Caliper Life Sciences, Inc.). […] (Carna Biosciences, Inc.) was used. […] Then, the substrate and the ATP solution were added thereto, followed by reaction for 1 hour. An ATP concentration of 1000 μM was used. A reaction liquid containing the enzyme protein but no test compound (in which the DMSO alone was added as a solvent at 0.4% in place of the test compound) was prepared, followed by reaction in the same manner with or without ATP addition. […] The concentration causing 50% inhibition (IC50) was calculated for the test compound by a logistic regression method.

[1] = tested on: Ba/F3 cells expressing EGFR T790M/L858R mutation kinase; experiment: Inhibition of EGFR T790M/L858R mutation kinase-dependent cell proliferation (Cell Titer-Glo); format: cell-based; details: Mus musculus, BaF3, 48 h, cultured 2 days
Experimental: In a 96-well plate (Iwaki), Ba/F3 cells were seeded at 500 cells per well in an RPMI1640 medium (Invitrogen) containing 10% fetal bovine serum, followed by the addition of the test compound (final concentrations ranging from 1 μM to 0.1 nM) and DMSO which was a solvent of the test compound as a negative control. In the presence of 5% CO2, the cells were cultured at 37° C. for 2 days. A cell counting reagent (Cell Titer-Glo; Promega) was added thereto, and the light emitting intensity was measured using a luminometer (Envison or ARVO; PerkinElmer Inc.). […] The inhibitory rate of the test compound was calculated and the concentration causing 50% inhibition (IC50 value) was determined by a logistic regression method.

Row | IC50 (EGFR [T790M/L858R]) | IC50 [1] | Structure (SMILES)
1 | 1.4 nM | 0.66 nM | C=CC(=O)Nc1cccc(Oc2nc(Nc3ccc(N4CCN(CC)CC4)cc3)c(C(N)=O)nc2CC)c1 [Example 43]
2 | 1.8 nM | 1.2 nM | C=CC(=O)Nc1cccc(Oc2nc(Nc3ccc(N4CCN(C)[C@@H](C)C4)cc3)c(C(N)=O)nc2CC)c1 [Example 63]
3 | 1.7 nM | 0.56 nM | C=CC(=O)Nc1cccc(Oc2nc(Nc3ccc(N4CCN(C)[C@H](C)C4)cc3)c(C(N)=O)nc2CC)c1 [Example 64]
4 | 1.1 nM | 2.1 nM | C=CC(=O)N1CCC(c2nc(Nc3ccc(N4CCC(N5CCN(C)CC5)CC4)c(C)c3)c(C(N)=O)nc2CC)CC1 [Example 24]
